Laboratory results as given in patent US20240317895A1.

Molecular target: PTlinker-SpyCatcher003-His
Experiment: depletion of SpyTag003-GA (2.0 mg/g carrier) from E. coli lysate supernatant, SDS-PAGE densitometry; SpyCatcher003-LX-1000EP (blocking control without SpyCatcher003 14.9)

Immobilization Efficiency (%): 26.1%
Substance: SpyTag003-Gslinker-GA-His (from UniProt P07662 30-720) (enzyme)
